This assay has as its system psychoactive effect. As to the kind of experiment: Psychoactive effects after oral consumption. To be noted: adult human; 10 milligrams orally in a formulation prepared according to Example 5; self-reported.

As for `CCCCCc1cc(O)c2c(c1)OC(C)(C)C1CCC(C)=CC21` (stereo not shown) [tetrahydrocannabinol anion, 6,6,9-trimethyl-3-pentyl-6a,7,8,10a-tetrahydro-6H-benzo[c]chromen-1-oxide], the psychoactive effect entry is “no marked psychoactive effect”.

These data come from patent publication US12419855B2, “Compositions comprising cannabinoid ions that are dissolved in glycerol” (Natural Extraction Systems, LLC, priority 2019, dated 2025).
